In PMC3236198:

Target: T1, Single stranded DNA binding protein from Escherichia coli (EcoSSB) (Escherichia coli), P0AGE0
T1 chain: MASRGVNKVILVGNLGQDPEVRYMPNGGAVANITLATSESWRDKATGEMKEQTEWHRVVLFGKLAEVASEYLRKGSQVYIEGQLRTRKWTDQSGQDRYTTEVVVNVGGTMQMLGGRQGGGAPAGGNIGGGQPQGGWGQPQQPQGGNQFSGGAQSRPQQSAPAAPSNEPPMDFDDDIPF
Assay: SEC; Superose 6HR 10/30, 20 mM Tris.HCl pH 8.0, 500 mM NaCl, 0.1 mM Na2EDTA; 10–200 µg of SSB loaded; oligomeric status from a plot of Ve/Vo versus log of molecular size markers
Conditions: remark: other sources report otherwise

stoichiometry N: 4
B1: Single stranded DNA binding protein from Escherichia coli (EcoSSB), P0AGE0 1-178 (natural protein)
chain: T1 chain
